Measured values as given in patent publication US20100311821A1, “Synthetic vector” (priority 2009, published 2010).

Tested on: λ-DNA
Experiment: DNA melting studies (Example 2)
Assay type: physicochemical, lambda phage
Conditions: stoichiometric KWK 64 μM, heating up to 95° C.
Procedure: DNA Melting Studies. DNA melting studies on native DNA and DNA complexes in 10 mM sodium cocadylate buffer were performed on a Carey 100 UV-Vis. DNA absorbance at 260 nm was monitored with temperature, slowly increasing from 50° C. to 95° C. at 1° C./min heating rate. For DNA-KWK, DNA-PP4, DNA-PP8 complexes, weak background absorbances from KWK, PP4 and PP8 were directly subtracted from the measurements, by using the corresponding KWK, PP4 and PP8 in 10 mM sodium cocadylate buffer as reference cells.
The stability of DNA-KWK, DNA-PP4 and DNA-PP8 complexes was investigated by DNA melting studies. Breakage of double-stranded DNA into single strands was monitored by an increase in the DNA absorbance at 260 nm, due to the disruption of hydrogen bonds between base pairs (i.e. hyperchromic effect). For native λ-DNA, Tm, the temperature at which 50% of ds-DNA dissociates, was determined to be 70° C. (FIG. 9, curve a). For melting studies on DNA-KWK, DNA-PP4 and DNA-PP8 complexes, weak background absorbances from the corresponding KWK, PP4, PP8 at 260 nm have been subtracted to achieve accurate DNA absorbance measurements. […] (FIG. 9, curve c). […] A much slower ds-DNA dissociation curve was observed (FIG. 9, curve d).

lysine-tryptophan-lysine [KWK]
stabilization of ds-DNA in melting study: only slightly shifted
